The values below come from publication PMC10178848, “Modulating fast skeletal muscle contraction protects skeletal muscle in animal models of Duchenne muscular dystrophy” (The Journal of Clinical Investigation, 2023).

Amino acid sequences for entries named in this document (tags omitted). Residues count along the entry.
UniProt Q9BE39, whole entry: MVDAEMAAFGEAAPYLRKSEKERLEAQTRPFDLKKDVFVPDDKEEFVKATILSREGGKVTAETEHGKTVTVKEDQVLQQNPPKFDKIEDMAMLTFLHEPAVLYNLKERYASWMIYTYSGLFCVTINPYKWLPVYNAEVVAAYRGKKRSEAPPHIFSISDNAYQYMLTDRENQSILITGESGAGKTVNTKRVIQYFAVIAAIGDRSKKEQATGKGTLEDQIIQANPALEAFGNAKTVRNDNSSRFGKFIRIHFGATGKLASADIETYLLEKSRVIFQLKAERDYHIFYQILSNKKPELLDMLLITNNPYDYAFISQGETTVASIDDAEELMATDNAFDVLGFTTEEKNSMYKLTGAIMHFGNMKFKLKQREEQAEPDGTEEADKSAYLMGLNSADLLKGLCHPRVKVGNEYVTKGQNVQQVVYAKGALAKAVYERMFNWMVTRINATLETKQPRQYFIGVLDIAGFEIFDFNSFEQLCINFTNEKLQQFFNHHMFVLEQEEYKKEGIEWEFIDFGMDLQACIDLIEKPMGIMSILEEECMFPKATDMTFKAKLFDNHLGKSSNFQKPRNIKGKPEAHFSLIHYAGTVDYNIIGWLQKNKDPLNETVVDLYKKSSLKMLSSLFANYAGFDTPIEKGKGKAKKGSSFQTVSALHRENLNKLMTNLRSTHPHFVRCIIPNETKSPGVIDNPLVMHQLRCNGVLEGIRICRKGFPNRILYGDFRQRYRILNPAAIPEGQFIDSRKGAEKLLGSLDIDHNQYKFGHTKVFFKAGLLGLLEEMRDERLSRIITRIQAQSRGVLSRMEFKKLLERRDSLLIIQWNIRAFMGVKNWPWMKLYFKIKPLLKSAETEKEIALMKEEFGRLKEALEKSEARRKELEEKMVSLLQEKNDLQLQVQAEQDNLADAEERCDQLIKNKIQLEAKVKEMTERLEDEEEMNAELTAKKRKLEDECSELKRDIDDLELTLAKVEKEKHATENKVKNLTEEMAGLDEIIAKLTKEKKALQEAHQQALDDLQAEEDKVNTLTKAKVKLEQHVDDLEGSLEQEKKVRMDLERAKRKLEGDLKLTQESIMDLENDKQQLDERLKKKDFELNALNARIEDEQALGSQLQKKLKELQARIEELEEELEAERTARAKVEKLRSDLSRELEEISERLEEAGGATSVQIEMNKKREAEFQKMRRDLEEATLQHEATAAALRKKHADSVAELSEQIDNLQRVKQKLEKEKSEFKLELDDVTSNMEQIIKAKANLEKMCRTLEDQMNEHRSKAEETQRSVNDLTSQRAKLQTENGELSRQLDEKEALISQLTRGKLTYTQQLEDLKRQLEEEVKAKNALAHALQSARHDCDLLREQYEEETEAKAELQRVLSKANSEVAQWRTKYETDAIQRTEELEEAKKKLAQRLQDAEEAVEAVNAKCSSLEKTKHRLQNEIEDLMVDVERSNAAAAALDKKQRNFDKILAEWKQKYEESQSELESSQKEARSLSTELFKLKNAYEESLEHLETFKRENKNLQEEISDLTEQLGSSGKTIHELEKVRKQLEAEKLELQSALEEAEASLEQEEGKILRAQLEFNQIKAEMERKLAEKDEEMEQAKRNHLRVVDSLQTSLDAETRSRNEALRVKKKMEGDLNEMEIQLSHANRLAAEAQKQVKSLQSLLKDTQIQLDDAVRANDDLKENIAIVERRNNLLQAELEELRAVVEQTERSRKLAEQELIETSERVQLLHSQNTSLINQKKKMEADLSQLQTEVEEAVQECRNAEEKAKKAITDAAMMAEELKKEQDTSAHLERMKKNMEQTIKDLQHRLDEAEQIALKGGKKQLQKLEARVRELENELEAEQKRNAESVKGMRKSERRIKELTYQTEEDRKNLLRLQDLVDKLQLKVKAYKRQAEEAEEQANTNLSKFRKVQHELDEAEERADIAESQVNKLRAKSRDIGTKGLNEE
UniProt A0A5F9CQ93, 1-1933: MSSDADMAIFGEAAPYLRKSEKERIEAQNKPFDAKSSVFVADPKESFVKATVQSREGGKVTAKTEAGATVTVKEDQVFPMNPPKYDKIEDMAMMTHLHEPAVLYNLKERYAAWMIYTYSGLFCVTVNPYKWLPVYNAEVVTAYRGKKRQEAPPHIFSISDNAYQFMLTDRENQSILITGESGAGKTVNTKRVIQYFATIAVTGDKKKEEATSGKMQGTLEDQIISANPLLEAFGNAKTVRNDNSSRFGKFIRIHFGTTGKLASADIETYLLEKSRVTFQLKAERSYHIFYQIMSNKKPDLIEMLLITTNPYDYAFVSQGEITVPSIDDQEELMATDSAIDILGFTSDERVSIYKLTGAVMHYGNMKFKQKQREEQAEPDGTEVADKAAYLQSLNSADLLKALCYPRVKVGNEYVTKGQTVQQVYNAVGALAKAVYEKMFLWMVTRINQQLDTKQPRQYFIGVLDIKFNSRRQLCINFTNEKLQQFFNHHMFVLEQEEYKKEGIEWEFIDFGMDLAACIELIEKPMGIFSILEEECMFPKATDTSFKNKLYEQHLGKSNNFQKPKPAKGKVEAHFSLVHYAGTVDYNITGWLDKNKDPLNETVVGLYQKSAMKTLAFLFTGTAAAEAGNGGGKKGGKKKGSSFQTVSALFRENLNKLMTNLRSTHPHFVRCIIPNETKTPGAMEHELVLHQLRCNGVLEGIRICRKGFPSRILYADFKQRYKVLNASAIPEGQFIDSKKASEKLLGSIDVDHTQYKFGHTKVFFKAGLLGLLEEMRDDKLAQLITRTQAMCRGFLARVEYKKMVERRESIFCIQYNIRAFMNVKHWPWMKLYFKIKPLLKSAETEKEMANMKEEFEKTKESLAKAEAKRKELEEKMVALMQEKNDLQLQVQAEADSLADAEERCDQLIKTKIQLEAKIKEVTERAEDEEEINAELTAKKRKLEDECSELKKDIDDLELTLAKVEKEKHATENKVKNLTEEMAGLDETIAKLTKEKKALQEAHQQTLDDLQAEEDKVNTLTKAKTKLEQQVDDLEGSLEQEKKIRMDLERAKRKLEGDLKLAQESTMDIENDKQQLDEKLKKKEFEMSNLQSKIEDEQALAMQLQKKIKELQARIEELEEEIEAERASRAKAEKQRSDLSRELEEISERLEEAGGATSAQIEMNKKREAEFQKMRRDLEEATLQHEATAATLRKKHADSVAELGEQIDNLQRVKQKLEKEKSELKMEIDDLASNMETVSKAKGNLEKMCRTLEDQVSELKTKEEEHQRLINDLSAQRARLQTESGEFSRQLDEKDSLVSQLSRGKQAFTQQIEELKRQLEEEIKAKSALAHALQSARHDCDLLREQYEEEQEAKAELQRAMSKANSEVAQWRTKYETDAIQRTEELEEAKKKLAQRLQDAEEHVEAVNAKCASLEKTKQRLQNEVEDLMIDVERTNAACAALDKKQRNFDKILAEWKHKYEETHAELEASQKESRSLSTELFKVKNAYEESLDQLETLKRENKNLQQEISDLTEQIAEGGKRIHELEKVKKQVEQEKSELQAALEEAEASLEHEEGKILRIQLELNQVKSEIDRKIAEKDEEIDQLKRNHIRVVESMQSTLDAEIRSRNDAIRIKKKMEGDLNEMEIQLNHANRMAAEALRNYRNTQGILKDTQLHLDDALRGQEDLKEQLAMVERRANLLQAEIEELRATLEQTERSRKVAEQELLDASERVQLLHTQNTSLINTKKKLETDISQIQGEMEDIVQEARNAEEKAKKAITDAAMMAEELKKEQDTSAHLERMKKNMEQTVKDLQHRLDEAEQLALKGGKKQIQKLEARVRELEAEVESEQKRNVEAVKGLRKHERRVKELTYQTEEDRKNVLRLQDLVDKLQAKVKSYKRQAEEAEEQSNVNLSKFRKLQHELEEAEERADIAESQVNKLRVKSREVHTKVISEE
UniProt A0A5F9CQ93, 1-837 limits assumed: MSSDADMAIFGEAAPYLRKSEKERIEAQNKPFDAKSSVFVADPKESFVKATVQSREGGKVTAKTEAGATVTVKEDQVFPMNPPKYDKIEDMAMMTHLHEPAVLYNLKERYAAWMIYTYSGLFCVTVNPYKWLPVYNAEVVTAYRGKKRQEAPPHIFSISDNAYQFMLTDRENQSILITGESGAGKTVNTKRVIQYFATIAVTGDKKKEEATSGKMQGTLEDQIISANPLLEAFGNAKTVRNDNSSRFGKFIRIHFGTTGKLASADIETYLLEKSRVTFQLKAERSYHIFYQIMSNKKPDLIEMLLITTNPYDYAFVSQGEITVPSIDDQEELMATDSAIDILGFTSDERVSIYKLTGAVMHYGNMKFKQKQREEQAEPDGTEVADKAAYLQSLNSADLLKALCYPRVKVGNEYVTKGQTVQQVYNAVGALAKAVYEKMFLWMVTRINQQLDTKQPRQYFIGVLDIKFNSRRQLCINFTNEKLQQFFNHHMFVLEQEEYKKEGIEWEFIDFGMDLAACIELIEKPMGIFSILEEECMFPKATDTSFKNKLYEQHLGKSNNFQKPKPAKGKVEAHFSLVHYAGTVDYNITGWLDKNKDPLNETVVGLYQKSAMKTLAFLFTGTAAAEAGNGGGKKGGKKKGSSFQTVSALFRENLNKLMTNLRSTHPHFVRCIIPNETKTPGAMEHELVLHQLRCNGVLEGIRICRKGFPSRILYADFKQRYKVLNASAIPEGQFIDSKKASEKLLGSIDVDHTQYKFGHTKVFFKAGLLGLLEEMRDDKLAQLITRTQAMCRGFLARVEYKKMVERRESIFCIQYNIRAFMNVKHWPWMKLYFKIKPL
UniProt P85100, whole entry partner: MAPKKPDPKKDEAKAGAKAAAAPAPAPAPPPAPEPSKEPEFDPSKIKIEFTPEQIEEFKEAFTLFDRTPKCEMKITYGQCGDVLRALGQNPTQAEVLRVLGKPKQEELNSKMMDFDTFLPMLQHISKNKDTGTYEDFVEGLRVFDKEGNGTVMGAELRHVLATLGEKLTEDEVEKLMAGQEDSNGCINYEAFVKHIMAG
UniProt Q3SZE5, whole entry partner: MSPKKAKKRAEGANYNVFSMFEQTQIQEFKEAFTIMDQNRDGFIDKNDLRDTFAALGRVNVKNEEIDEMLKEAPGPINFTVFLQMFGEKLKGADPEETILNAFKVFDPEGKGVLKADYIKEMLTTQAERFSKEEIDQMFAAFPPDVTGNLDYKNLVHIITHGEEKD
UniProt P02602, 2-192 partner limits assumed: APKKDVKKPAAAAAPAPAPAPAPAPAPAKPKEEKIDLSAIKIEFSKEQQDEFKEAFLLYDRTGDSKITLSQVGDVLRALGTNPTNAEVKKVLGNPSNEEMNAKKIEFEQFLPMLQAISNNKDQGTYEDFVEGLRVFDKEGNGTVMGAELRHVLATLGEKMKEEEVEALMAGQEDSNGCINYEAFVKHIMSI

Assay [1] deals with slow bovine masseter skeletal myofibrils (Bos taurus, UniProt Q9BE39). The assay is described as follows: Myofibril ATPase, bovine masseter. It counts as biochemical. As to conditions: read-out: IC50, myofibril ATPase, 100% type I, at pCa50.
In a further assay the target is Human Cardiac myofibrils (Homo sapiens, UniProt P12883). The assay is described as follows: Myofibril ATPase, human cardiac. As to conditions: read-out: IC50, myofibril ATPase, 7% MHCα, 93% MHCβ. On the procedure:
(§1) Myofibrils were prepared from various animals and tissues: rabbit psoas muscle and porcine cardiac muscle were purchased from Pel-Freez Biologicals. Human bicep and soleus muscle were purchased from BioIVT, and neonatal rat muscle was obtained in house. All myofibrils were prepared using published methods ([21]).
(§2) A lactate dehydrogenase/pyruvate kinase enzyme-coupled system ([62]) was used to monitor ATP hydrolysis rates in various muscle preparations. Rabbit psoas myofibrils were used for high-throughput screening at pCa 6.25 at 0.25 mg/mL. A multidrop cassette (Thermo Fisher Scientific) dispensed 10 μL of the coupled enzyme system, calcium, and myofibrils to 10 μL ATP, NADH and PEP to initiate the reaction prior to reading on a plate reader (Envision, Perkin Elmer) for 10 minutes per plate at room temperature. Hits were reconfirmed, and secondary assays were used to evaluate selectivity, including bovine cardiac myofibrils (pCa 5.86) and enzyme coupled hits with a hexokinase screen (Sigma-Aldrich).

In assay [2] the target is Porcine Ventricle myofibrils (Sus scrofa, UniProt P79293). The assay is described as follows: Myofibril ATPase, porcine ventricle. Particulars: read-out: IC50, myofibril ATPase, 100% MHC β. On the procedure: as §1, §2
For assay [3], the system named is mouse gastrocnemius myofibrils. Description: Myofibril ATPase, mouse gastrocnemius.
For a further assay, the target named is Human Bicep myofibrils. The assay is described as follows: Myofibril ATPase, human bicep. Type of assay: biochemical. As to conditions: read-out: IC50, myofibril ATPase, 50% Type I, 50% IIa, IIx. On the procedure:
as §1, §2

For the next assay, the system named is mouse TA muscle. Description: In situ TA force and lengthening injury. Particulars: mdx TA muscle, oral, 2 lengthening contractions. On the procedure: Measurement of isometric force and eccentric injury response in situ was performed in mouse TA muscle based on published protocols ([30]). Mice were anesthetized with 2% isoflurane (0.7%–1.5% maintenance) on a 37°C platform. The distal tendon to the TA and EDL muscle was attached with 4-0 suture a servomotor (Aurora Scientific). The sciatic nerve was exposed at the knee for hook electrodes. For compound assessment, baseline isometric contraction was assessed at 25–175 Hz (9 mA, 300 ms) followed by 100 Hz stimuli every 5 minutes. After 15 minutes, compound was dosed PO, and recording continued for 4 hours followed by a second force frequency. For in situ eccentric injury, compound was administered PO, muscle was stimulated every 5 minutes at 100 Hz for 3.5 hours, and then 2 lengthening contractions were performed (10 min apart, 100 ms at 150 Hz, then lengthening 0.2 L0 at 2 L0/s and hold for 100 ms). Isometric force before and 10 minutes after the injury contractions was recorded.

The next assay has as its system DBA/2J mdx mouse. The assay is described as follows: 12-week dosing in DBA/2J mdx mice (fibrosis). As to conditions: 12 weeks, chow. Type of assay: in vivo. An excerpt:
C57BL/6 (stock no. 000664), C57BL/10J (stock no. 000665, control for mdx experiments), C57BL/10ScSn-Dmd^mdx/J (mdx, stock no. 001801), and D2.B10 (DBA/2-congenic) Dmd^mdx (DBA/2J mdx, stock no. 013141) mice were from The Jackson Laboratory. Sprague-Dawley rats were purchased from Charles River Laboratories. For ex vivo experiments, mice were 10–16 weeks old. For in situ experiments, mice were 8–14 weeks of age. For in vivo chronic dosing studies, mdx and DBA/2J mdx were 4–5 weeks of age at study start. Dosing was via a 10 mL/kg suspension (1% methyl cellulose, 0.1% Tween 80 in water). For studies in 14-day-old preweaning mice, PO dosing was via syrup suspension (3 mg/kg/d). […]
For sterile muscle injury, mice were anesthetized with isoflurane and 50 μL cardiotoxin (12 × 10^–6 M, 217503, Millipore) injected in the TA muscle. […] 8 μm cryosections were cut and stained with H&E. For each analysis, more than 10 slides (per condition/group) containing 6 muscle sections/sample were used, and myofibers in the injured area were counted and measured with a Mirax digital scanner and HALO software ([68]). […] Image analysis was performed using ImarisX64 software (Bitplane AG), and fiber sizing was calculated using minimal Feret’s diameter ([69]). […] Fiber type, size, and central nucleation were quantified with analysis via SMASH ([70]) and ImageJ (NIH). […]

The target of assay [4] is fast skeletal S1 from rabbit psoas (Oryctolagus cuniculus, UniProt A0A5F9CQ93). The assay is described as follows: Actin-activated myosin S1 ATPase, fast skeletal. Particulars: rabbit psoas S1 fragment. Here is the method:
Smooth muscle chicken gizzard S1 was purchased from Cytoskeleton Inc. Other myosin S1 was prepared via published protocols ([21]). Briefly, fresh rabbit psoas and frozen porcine ventricular muscle (Pel-freez) were extracted in 0.3 M KCl, 0.15 M KH2PO4, 1 mM EGTA, 1 mM ATP, 1 mM DTT, pH 6.5, at 4°C. Full-length myosin was purified from each extract via low-ionic precipitations with final precipitation into PM12 buffer (12 mM PIPES, pH 7.0, 2 mM MgCl2). Purified myosin was resuspended in PIPES/EDTA buffer (20 mM PIPES, pH 6.8, 10 mM EDTA, 1 mM DTT) and reacted with 0.2 mg/mL α-chymotrypsin for 30 minutes at room temperature. Proteolysis was quenched with PMSF (final concentration 100 μM), and the reaction was centrifuged for 45 minutes at 230,000g. S1 fragment in the supernatant was dialyzed into PM12 with 0.02% sodium azide and clarified by centrifugation. Sucrose was added to 10% w/v and flash-frozen in liquid N2 and stored at –80°C. […]
A lactate dehydrogenase/pyruvate kinase enzyme-coupled system ([62]) was used to monitor ATP hydrolysis rates in various muscle preparations. […] A multidrop cassette (Thermo Fisher Scientific) dispensed 10 μL of the coupled enzyme system, calcium, and myofibrils to 10 μL ATP, NADH and PEP to initiate the reaction prior to reading on a plate reader (Envision, Perkin Elmer) for 10 minutes per plate at room temperature. […]

Assay [5] addresses fast myofibril ATPase from rabbit psoas muscle (Oryctolagus cuniculus, UniProt A0A5F9CQ93). The assay is described as follows: Myofibril ATPase, rabbit psoas. Here is the method: as §1, §2
The subject of the next assay is mouse TA myofibrils. The assay is described as follows: Myofibril ATPase, mouse TA.
Assay [6] has as its target Neonatal Rat (P1) myofibrils. The assay is described as follows: Myofibril ATPase, neonatal rat. It counts as biochemical. As to conditions: read-out: IC50, myofibril ATPase, 100% neonatal/embryonic MHC. Here is the method: as §1, §2
For another assay, the target named is Human Soleus myofibrils. Description: Myofibril ATPase, human soleus. Type of assay: biochemical. As to conditions: read-out: IC50, myofibril ATPase, 66% Type I, 33% IIa, IIx, at pCa 50. Here is the method:
as §1, §2

The target of assay [7] is Rabbit Cardiac myofibrils. The assay is described as follows: Myofibril ATPase, rabbit cardiac. As to conditions: read-out: IC50, myofibril ATPase, 25% MHCα, 75% MHC β, at pCa 50.

Each structure is given as a SMILES string.

Take `CCNC(=O)Cn1nc(-c2ccc(OCC(F)(F)F)cc2)ccc1=O`: the IC50 in assay [1] is above 100 µM; at Human Cardiac myofibrils, above 100 µM; in [2], above 100 µM; in assay [3] (read-out: IC50, myofibril ATPase, mouse gastrocnemius, 21% IIa, 15% IIx, 56% IIb) it was 0.6 µM; on Human Bicep myofibrils, 1 µM; in assay [5] (read-out: IC50, myofibril ATPase, rabbit psoas, 96% IIx/d, at pCa50), 1.8 µM. Moreover, the IC50 was 0.7 µM at mouse TA myofibrils (read-out: IC50, myofibril ATPase, mouse TA, mixed IIa, IIx, IIb); 0.8 µM in assay [6]; 2.4 µM on Human Soleus myofibrils; above 100 µM in assay [7]. In addition, the “Maximum Inhibition (%)” value in assay [3] (mouse gastroc myofibrils) was 98%; in assay [4], above 95%; in [5] (rabbit psoas myofibrils, bottom plateau of 4-parameter logistic fit), 98%; in the assay with mouse TA myofibrils (mouse TA myofibrils), above 99%. In addition, the “strength drop after in situ lengthening injury” value in the assay on mouse TA muscle was “protective”. In addition, the left ventricular fibrosis result with DBA/2J mdx mouse is “significant decreases in left ventricular fibrosis”.
